From US10358436B2, “Kinase inhibitors and method of treating cancer” (University Health Network, priority 2010, dated 2019)

Amino acid sequences for entries named in this document (tags omitted). A change or cut given only in a name is not applied to a line headed by its entry. Residues count along the entry.
UniProt P00519, whole entry: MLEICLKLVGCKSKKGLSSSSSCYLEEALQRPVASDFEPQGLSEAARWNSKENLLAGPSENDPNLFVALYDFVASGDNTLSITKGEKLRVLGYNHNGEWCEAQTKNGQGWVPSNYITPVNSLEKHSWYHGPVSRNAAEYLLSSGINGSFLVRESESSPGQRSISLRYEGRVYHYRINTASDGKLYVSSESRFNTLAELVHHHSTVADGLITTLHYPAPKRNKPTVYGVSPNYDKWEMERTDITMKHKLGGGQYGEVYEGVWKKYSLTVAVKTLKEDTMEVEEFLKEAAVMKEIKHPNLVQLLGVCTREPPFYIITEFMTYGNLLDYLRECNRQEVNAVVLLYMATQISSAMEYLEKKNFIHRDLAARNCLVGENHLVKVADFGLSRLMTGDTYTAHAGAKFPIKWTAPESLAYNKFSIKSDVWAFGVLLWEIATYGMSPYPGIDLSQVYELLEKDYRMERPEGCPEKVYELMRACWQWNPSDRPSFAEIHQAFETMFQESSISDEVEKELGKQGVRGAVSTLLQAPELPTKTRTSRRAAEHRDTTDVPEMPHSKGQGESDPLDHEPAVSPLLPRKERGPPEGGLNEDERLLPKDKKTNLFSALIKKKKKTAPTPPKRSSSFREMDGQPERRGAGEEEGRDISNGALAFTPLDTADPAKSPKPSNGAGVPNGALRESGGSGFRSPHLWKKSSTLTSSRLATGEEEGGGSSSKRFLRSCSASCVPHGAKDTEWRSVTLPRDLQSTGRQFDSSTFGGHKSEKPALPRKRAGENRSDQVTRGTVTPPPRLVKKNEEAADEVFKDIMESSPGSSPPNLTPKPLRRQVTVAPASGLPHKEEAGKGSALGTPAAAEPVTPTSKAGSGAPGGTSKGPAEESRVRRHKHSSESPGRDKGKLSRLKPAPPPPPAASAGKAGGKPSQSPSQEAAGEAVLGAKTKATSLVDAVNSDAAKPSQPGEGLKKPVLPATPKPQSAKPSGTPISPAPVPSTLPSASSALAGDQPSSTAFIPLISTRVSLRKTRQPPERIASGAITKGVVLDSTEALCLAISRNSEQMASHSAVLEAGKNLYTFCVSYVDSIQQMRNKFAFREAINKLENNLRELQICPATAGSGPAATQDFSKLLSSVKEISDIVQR
UniProt Q16539, whole entry: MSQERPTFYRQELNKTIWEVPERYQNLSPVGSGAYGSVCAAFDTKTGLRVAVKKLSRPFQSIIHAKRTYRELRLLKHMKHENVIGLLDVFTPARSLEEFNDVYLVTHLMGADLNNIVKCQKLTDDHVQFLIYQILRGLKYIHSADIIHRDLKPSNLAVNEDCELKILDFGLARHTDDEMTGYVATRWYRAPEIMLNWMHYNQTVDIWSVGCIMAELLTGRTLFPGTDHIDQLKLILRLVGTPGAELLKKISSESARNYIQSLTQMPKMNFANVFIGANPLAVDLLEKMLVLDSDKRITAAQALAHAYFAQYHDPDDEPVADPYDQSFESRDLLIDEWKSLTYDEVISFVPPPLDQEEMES
UniProt P17948, 27-1338: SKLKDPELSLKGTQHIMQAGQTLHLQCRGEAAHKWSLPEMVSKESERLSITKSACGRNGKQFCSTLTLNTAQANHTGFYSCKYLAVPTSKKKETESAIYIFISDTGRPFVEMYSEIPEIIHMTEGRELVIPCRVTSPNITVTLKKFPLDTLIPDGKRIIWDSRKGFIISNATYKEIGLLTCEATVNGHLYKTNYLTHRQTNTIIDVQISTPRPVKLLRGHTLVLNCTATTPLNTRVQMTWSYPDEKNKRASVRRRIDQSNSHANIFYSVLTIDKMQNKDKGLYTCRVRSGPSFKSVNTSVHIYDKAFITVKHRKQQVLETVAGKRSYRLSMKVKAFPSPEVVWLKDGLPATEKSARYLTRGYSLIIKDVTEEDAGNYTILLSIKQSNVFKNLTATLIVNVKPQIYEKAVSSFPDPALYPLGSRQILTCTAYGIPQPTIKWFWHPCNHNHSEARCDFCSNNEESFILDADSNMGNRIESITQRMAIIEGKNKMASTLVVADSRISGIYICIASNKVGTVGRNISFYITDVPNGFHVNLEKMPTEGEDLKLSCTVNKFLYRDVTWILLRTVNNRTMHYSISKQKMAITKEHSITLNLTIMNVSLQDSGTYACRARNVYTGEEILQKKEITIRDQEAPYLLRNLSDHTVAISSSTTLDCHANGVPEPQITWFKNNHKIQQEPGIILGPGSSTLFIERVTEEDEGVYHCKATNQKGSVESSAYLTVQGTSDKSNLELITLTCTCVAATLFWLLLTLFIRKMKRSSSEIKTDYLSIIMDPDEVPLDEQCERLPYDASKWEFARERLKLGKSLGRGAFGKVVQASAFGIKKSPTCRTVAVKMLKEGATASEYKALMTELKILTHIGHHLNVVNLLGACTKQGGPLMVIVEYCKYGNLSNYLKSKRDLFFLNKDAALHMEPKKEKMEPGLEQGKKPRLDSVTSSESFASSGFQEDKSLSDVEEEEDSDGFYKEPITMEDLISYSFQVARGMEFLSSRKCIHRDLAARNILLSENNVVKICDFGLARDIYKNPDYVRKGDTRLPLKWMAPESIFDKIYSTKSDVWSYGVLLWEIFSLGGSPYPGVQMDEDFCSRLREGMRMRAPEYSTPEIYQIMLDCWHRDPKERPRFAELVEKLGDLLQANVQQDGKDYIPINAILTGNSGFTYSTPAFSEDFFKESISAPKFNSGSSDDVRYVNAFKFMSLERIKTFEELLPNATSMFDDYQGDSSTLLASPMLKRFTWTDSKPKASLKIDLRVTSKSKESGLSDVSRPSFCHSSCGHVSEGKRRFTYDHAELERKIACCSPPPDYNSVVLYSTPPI
UniProt P08069, 31-1367: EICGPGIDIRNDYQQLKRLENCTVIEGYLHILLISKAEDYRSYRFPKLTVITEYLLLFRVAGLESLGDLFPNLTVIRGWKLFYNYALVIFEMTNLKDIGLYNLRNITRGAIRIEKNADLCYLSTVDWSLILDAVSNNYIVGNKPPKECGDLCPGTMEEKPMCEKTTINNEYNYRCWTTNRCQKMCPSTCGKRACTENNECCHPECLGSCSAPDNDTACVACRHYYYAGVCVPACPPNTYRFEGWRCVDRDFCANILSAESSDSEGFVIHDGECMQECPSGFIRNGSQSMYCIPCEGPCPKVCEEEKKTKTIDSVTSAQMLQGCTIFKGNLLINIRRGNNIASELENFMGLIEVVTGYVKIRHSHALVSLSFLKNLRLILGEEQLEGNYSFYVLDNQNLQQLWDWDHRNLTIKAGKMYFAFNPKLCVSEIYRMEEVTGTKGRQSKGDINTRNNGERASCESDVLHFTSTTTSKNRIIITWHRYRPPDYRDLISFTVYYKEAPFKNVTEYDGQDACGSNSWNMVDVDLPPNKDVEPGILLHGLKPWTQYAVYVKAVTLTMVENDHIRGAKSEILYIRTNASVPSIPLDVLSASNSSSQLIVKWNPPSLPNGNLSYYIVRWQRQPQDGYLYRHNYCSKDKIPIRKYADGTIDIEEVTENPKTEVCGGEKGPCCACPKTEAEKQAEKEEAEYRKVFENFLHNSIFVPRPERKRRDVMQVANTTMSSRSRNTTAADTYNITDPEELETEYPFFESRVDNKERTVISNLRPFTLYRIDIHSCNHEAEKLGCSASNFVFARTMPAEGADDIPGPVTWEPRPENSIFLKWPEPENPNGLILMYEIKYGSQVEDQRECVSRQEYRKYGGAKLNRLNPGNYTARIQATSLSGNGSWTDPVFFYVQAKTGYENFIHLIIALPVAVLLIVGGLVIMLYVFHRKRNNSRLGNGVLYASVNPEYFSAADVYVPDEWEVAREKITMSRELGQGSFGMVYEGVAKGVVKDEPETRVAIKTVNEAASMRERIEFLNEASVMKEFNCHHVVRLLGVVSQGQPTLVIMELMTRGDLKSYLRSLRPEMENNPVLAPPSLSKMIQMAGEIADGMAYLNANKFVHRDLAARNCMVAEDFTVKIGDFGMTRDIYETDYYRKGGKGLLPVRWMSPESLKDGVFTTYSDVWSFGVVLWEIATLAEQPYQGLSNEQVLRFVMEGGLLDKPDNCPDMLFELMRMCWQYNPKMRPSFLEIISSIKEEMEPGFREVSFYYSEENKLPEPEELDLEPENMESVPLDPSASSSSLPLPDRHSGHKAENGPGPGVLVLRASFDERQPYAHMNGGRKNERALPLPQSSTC
UniProt P05771, whole entry: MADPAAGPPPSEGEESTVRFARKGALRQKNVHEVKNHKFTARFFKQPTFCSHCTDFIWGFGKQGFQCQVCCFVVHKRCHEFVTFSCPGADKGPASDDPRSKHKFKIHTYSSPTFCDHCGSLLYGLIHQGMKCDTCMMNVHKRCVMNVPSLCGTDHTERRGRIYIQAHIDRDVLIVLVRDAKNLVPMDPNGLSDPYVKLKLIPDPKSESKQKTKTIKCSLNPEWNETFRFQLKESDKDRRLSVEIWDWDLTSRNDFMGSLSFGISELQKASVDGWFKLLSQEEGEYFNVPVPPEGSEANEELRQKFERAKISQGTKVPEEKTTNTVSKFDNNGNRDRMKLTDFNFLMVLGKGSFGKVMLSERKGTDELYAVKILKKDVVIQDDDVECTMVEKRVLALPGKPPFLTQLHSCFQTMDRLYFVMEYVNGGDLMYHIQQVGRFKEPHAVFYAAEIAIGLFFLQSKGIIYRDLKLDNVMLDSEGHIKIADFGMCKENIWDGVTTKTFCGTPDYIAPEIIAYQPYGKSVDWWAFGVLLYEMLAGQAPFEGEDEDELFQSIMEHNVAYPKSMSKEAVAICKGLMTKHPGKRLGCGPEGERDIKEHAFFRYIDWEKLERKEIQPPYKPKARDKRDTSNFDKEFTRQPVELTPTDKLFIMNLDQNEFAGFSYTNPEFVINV
UniProt P06239: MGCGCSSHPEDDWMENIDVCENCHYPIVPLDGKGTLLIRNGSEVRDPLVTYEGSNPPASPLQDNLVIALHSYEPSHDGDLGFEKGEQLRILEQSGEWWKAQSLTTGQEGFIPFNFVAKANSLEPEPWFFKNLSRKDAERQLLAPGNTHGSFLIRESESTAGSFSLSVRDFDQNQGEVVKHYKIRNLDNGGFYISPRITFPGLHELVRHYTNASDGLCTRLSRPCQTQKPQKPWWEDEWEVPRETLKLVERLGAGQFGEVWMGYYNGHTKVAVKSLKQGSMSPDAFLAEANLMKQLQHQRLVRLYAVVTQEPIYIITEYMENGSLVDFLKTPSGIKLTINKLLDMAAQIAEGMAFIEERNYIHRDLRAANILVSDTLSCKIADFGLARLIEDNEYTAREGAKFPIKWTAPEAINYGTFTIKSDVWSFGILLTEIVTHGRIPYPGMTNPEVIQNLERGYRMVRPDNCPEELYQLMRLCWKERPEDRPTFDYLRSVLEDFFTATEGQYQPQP
UniProt P07948: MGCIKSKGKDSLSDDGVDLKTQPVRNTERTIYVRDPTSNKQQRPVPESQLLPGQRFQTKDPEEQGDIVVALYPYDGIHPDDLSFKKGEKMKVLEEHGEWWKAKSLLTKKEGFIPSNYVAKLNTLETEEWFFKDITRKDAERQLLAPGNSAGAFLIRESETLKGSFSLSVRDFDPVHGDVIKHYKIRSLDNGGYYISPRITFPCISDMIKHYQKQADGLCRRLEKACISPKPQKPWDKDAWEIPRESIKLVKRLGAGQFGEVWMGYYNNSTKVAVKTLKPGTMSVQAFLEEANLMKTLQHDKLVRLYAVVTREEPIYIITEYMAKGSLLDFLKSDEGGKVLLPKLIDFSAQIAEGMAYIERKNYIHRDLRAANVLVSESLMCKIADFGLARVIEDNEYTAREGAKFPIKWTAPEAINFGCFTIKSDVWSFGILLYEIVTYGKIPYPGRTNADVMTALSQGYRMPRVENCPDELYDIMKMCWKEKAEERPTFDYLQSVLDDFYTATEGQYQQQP
UniProt P04629, 33-796: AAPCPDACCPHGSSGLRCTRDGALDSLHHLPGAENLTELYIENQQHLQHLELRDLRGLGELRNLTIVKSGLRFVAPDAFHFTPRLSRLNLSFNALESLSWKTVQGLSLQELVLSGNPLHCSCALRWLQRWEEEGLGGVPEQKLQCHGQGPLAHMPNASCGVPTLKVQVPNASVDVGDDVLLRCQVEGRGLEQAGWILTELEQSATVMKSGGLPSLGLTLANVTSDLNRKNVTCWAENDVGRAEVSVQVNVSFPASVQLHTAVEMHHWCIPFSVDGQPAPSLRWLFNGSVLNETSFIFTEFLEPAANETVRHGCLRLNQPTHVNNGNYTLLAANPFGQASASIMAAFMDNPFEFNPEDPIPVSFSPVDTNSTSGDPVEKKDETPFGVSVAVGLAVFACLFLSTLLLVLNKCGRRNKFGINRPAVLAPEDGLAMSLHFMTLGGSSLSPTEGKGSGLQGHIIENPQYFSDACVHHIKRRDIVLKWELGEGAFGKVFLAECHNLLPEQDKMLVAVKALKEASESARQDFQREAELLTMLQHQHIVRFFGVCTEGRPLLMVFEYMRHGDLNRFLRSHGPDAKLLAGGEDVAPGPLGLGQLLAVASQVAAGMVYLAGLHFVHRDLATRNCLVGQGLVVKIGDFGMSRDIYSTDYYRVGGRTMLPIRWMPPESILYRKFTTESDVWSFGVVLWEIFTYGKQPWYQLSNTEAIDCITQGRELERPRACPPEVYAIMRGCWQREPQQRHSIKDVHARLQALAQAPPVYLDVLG

Assays:
Type in all cases: biochemical
human PLK4 = human PLK4 (Homo sapiens (Human), UniProt O00444); experiment: PLK4 inhibition assay (indirect ELISA)
Src kinase = Src kinase (Homo sapiens (Human), UniProt P12931); experiment: Kinase selectivity assay (CEREP HTRF panel); conditions: read-out: % Inhibition @ 10 uM, Src
Abl = Abl (Homo sapiens (Human), UniProt P00519); experiment: Kinase selectivity assay (CEREP HTRF panel); conditions: read-out: % Inhibition @ 10 uM, Abl
p38alpha kinase = p38alpha kinase (Homo sapiens (Human), UniProt Q16539); experiment: Kinase selectivity assay (CEREP HTRF panel); conditions: read-out: % Inhibition @ 10 uM, p38alpha
FLT-1 kinase (VEGFR1) = FLT-1 kinase (VEGFR1) (Homo sapiens (Human), UniProt P17948); experiment: Kinase selectivity assay (CEREP HTRF panel); conditions: read-out: % Inhibition @ 10 uM, FLT-1 (VEGFR1)
IGF1R kinase = IGF1R kinase (Homo sapiens (Human), UniProt P08069); experiment: Kinase selectivity assay (CEREP HTRF panel); conditions: read-out: % Inhibition @ 10 uM, IGF1R
PKCbeta 1 = PKCbeta 1 (Homo sapiens (Human), UniProt P05771); experiment: Kinase selectivity assay (CEREP HTRF panel); conditions: read-out: % Inhibition @ 10 uM, PKCbeta 1
Lck = Lck (Homo sapiens (Human), UniProt P06239); experiment: Kinase selectivity assay (CEREP HTRF panel); conditions: read-out: % Inhibition @ 10 uM, Lck
Lyn kinase = Lyn kinase (Homo sapiens (Human), UniProt P07948); experiment: Kinase selectivity assay (CEREP HTRF panel); conditions: read-out: % Inhibition @ 10 uM, Lyn
JNK 2 = JNK 2 (Homo sapiens (Human), UniProt P45984); experiment: Kinase selectivity assay (CEREP HTRF panel); conditions: read-out: % Inhibition @ 10 uM, JNK 2
TRKA = TRKA (Homo sapiens (Human), UniProt P04629); experiment: Kinase selectivity assay (CEREP HTRF panel); conditions: read-out: % Inhibition @ 10 uM, TRKA

COc1ccc2c(c1)[C@]1(C[C@H]1c1ccc3c(-c4ccc(C5CCNCC5)cc4)n[nH]c3c1)C(=O)N2 (relative stereo) [Example A122, (1R*,2S*)-5′-methoxy-2-(3-(4-(piperidin-4-yl)phenyl)-1H-indazol-6-yl)spiro[cyclopropane-1,3′-indolin]-2′-one 2,2,2-trifluoroacetate]
IC50 (human PLK4; read-out: PLK4 IC50 Ranges): < 100 nM

COc1ccc2c(c1)[C@]1(C[C@H]1c1ccc3c(-c4ccc(N5CCN(C(C)C)CC5)cc4)n[nH]c3c1)C(=O)N2 (relative stereo) [Example A96, (1R*,2S*)-2-(3-(4-(4-isopropylpiperazin-1-yl)phenyl)-1H-indazol-6-yl)-5′-methoxyspiro[cyclopropane-1,3′-indolin]-2′-one]
IC50 (human PLK4): < 100 nM

COc1ccc2c(c1)[C@]1(C[C@H]1c1ccc3c(-c4ccc(N5CCN(C)CC5)nc4)n[nH]c3c1)C(=O)N2 (relative stereo) [Example A13, (1R*,2S*)-5′-Methoxy-2-(3-(6-(4-methylpiperazin-1-yl)pyridin-3-yl)-1H-indazol-6-yl)spiro[cyclopropane-1,3′-indolin]-2′-one]
inhibition at 10 µM (Src kinase): 13%
inhibition at 10 µM (Abl): 91%
inhibition at 10 µM (p38alpha kinase): -28%
inhibition at 10 µM (FLT-1 kinase (VEGFR1)): 22%
inhibition at 10 µM (IGF1R kinase): -3%
inhibition at 10 µM (PKCbeta 1): -2%
inhibition at 10 µM (Lck): 71%
inhibition at 10 µM (Lyn kinase): 15%
inhibition at 10 µM (JNK 2): 11%
inhibition at 10 µM (TRKA): 93%

Like-named read-outs stand apart in the source and are kept apart here.
